Assay: patients with anti-drug antibodies; higher = more immunogenic

B1: unnamed (protein)
chain 1: QAQVVESGGGVVQSGRSLRLSCAASGFAFSSYGMHWVRQAPGKGLEWVAVIWYDGSNKYYADSVRGRFTISRDNSENTLYLQMNSLRAEDTAVYYCARDHYGSGVHHYFYYGLDVWGQGTTVTVSS
chain 2: [about 100 residues not shown]
For B1, the “patients with anti-drug antibodies” value was 0%.

From the FLAb antibody collection
